In PubChem BioAssay AID485344 (National Center for Advancing Translational Sciences (NCATS), 2010):
The list shows a part of the results, in another mix than the full data. Activity calls are given as the source filed them. Cut-off read from the data, not from the text of the source: active = inhibition above about 30%; inactive = below that, where a call was filed.

Chains of the proteins cited; added tags and fusions are not shown.
UniProt P14416, whole entry: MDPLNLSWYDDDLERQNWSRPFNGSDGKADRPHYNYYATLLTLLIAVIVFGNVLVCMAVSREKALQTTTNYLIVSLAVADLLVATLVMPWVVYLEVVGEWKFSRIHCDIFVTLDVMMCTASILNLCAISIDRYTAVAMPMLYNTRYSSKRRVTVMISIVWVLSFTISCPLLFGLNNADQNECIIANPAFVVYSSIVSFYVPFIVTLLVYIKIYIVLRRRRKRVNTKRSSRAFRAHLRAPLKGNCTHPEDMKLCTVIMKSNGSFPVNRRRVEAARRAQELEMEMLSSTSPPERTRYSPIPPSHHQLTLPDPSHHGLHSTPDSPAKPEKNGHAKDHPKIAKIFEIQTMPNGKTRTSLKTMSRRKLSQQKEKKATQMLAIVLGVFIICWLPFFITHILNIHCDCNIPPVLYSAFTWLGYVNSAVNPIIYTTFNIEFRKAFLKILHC

target: D(2) dopamine receptor (Homo sapiens) (UniProt P14416); assay: HTS Assay for Allosteric Antagonists of the Human D2 Dopamine Receptor: Primary Screen for Antagonists; settings: HEK293 TREx D2 cells, calcium flux, dopamine EC80; at 10 µM; active compounds read high; note: 0% is about no effect
Text: NIH Chemical Genomics Center [NCGC] NIH Molecular Libraries Probe Centers Network [MLPCN] MLPCN Grant: NS064831-01 Assay Submitter (PI): David Sibley Dopamine receptors (DARs) are involved in the etiology and/or therapy of a number of neuropsychiatric and endocrine disorders. For instance, all receptor-based antiparkinsonian drugs work via stimulating the D2 DAR subtype whereas all FDA-approved antipsychotic agents are antagonists of this receptor. […] There are three different types of allosteric modulators that we are seeking, two of which will stimulate or augment receptor signaling, allosteric agonists and potentiators, while the third, allosteric antagonists, will attenuate receptor signaling. The present primary screening assay measures compound antagonism after an EC80 addition of dopamine by tracking calcium flux in a […], inducible Hek293 Trex D2 cell line.
Freshly passaged cells are plated in 1536 well black, clear bottom plates at a density of 4000 cells/well in 3 ul of complete media containing 1x tetracycline inducer. After an overnight incubation at 30 C in 5% CO2, cells are loaded with 2 ul of the no wash Calcium Assay Kit (ABD Bioquest) and incubated at room temperature for 30 to 90 minutes. Agonist read: A 10 cycle (1 second/cycle) baseline measurement is taken and then the FDSS online 1536 pintool delivers 23 nl of compound library (as well as dopamine controls) to the plate. The plate is measured for kinetically at 1 cycle/sec for 180 seconds. Following the 180 second read, 1 ul of an EC80 (negative modulation assay) is delivered by an onboard pipette head. Measurements are taken kinetically for an additional 180 seconds.

Row | SMILES | inhibition
1 | Cc1nc2ccc3ccccc3c2s1.O=[N+]([O-])c1cc([N+](=O)[O-])c(O)c([N+](=O)[O-])c1 | inactive: 3.95%
2 | O=[N+]([O-])c1cc([N+](=O)[O-])c(-n2nnc3ccccc32)c([N+](=O)[O-])c1 | inactive: 29.1%
3 | CP(=O)(Nc1ccc(SC(F)(F)F)cc1)Oc1ccccc1 (configuration not stated) | inactive: 6.57%
4 | CN1CCCCC1COC(=O)C1(O)c2ccccc2CCc2ccccc21 (configuration not stated) | inactive: 10.6%
5 | COc1ccccc1OP(C)(=O)Nc1c(C)cccc1C (configuration not stated) | inactive: -5.81%
6 | CC1=C2N=C(C=C3N=C(C(C)=C4[N-][C@@](C)([C@@H]5N=C1[C@](C)(CCC(=O)NC[C@@H](C)OP(=O)([O-])O[C@H]1[C@@H](O)[C@@H](n6cnc7cc(C)c(C)cc76)O[C@@H]1CO)[C@H]5CC(N)=O)[C@@](C)(CC(N)=O)[C@@H]4CCC(N)=O)[C@@](C)(CC(N)=O)[C@@H]3CCC(N)=O)C(C)(C)[C@@H]2CCC(N)=O.[C-]#N.[Co+3] | inactive: -12.8%
7 | O=[N+]([O-])c1cc([N+](=O)[O-])c(Nc2nnnn2CCO)c([N+](=O)[O-])c1 | inactive: -2.42%
8 | CC1=NCCc2c1[nH]c1ccccc21.O=[N+]([O-])c1cc([N+](=O)[O-])c(O)c([N+](=O)[O-])c1 | inactive: 0.132%
9 | Cc1ccc(C)c(NP(C)(=O)Oc2ccccc2)c1 (configuration not stated) | inactive: -3.91%
10 | Cc1cc(C)cc(OP(C)(=O)Nc2ccccn2)c1 (configuration not stated) | inactive: -10.9%
11 | CP(=O)(Nc1cccc(Br)c1)Oc1ccccc1 (configuration not stated) | inactive: -0.485%
12 | CCOC(=O)c1ccc(NP(C)(=O)Oc2cc(C)cc(C)c2)cc1 (configuration not stated) | inactive: -7.08%
13 | CCN(CC)CCCOC(=O)C(O)(c1ccccc1)c1ccccc1 | inactive: 1.55%
14 | Cc1cc(C)cc(OP(C)(N)=O)c1 (configuration not stated) | inactive: 6.64%
15 | COc1ccc(OP(C)(=O)Nc2cccc(F)c2)cc1 (configuration not stated) | inactive: 2.66%
16 | COc1ccccc1OP(C)(=O)Nc1ccc(C)cc1 (configuration not stated) | inactive: -3.25%
17 | Cc1ccc(NP(C)(=O)Oc2ccccc2)c(C)c1 (configuration not stated) | inactive: 1.72%
18 | CCOC(=O)c1ccc(NP(C)(=O)Oc2ccccc2)cc1 (configuration not stated) | inactive: 16.2%
19 | O=[N+]([O-])c1ccc2c(c1)C=Nc1ccccc1O2 | inactive: -12.8%
20 | CC(C)(C)c1ccc(OP(C)(=O)Nc2ccc(SC(F)(F)F)cc2)cc1 (configuration not stated) | inactive: 4.78%
21 | Cc1cccc(C)c1OP(C)(N)=O (configuration not stated) | inactive: 8.98%
22 | O=[N+]([O-])c1cc([N+](=O)[O-])c(Nc2cccnc2)c([N+](=O)[O-])c1 | inactive: 18.8%
